The chains behind the UniProt entries cited, without tags or fusion partners. Residues count along the entry.
UniProt P51449, 269-508: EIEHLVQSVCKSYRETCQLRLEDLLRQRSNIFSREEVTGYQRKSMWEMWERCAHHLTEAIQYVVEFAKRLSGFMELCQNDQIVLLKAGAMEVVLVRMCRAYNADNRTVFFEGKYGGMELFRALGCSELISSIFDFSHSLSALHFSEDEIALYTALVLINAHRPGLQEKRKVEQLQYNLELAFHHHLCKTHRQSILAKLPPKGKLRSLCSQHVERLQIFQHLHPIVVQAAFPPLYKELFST

For the test, the target named is human RORgammaT-Ligand Binding Domain (LBD) (Homo sapiens (Human), UniProt P51449). In words: RORγ-Ligand Binding Domain TR-FRET Assay (co-activator peptide SRC1_2 recruitment). It is filed as biochemical. Conditions: HIS-tagged RORγ-LBD 3 nM, biotinylated SRC1 LXXLL peptide 100 nM, incubated overnight at 4° C., 665 nm/615 nm ratio. The text has this: Activation of RORgammaT activity can be measured using, e.g., a biochemical TR-FRET assay. In such an assay, interaction of cofactor-derived peptides with human RORgammaT-Ligand Binding Domain (LBD) can be measured.
To identify novel antagonists of RORgammaT, an assay was developed which employs the interaction of RORgammaT with its co-activator peptide SRC1_2. […] The RORγ-Ligand Binding Domain TR-FRET Assay was run according to the following protocol.
HIS-tagged RORγ-LBD protein was recombinantly expressed in Escherichia coli. The RORγ-LBD protein was purified by Ni^2+-affinity resin. Purified protein was then diluted in assay buffer (50 mM Tris pH 7.0, 50 mM KCl, 1 mM EDTA, 0.1 mM DTT, 100 μg/mL bovine serum albumin, delipidated) to obtain a RORγ-LBD final concentration of 3 nM.
Compounds to be tested were injected to the 384-well assay plate using Acoustic Droplet Ejection technology by Echo 550 liquid handler (Labcyte, CA).
A general note: TR-FRET usually uses a lanthanide donor and a delayed reading to cut background.
The term IC50 denotes the concentration that inhibits the measured activity by half. For `CCOC(=O)C(C)C[C@H]1CN(S(=O)(=O)c2ccc(F)c(Cl)c2)c2cc(NC(=O)OC(C)(C)C(F)(F)F)ccc2O1` (single isomer, unassigned) [Example 2A, (S or R)-ethyl 3-((S)-4-((3-chloro-4-fluorophenyl)sulfonyl)-6-((((1,1,1-trifluoro-2-methylpropan-2-yl)oxy)carbonyl)amino)-3,4-dihydro-2H-benzo[b][1,4]oxazin-2-yl)-2-methylpropanoate], the IC50 amounted to 7 nM.
On to `CCOC(=O)C(C)C[C@H]1CN(S(=O)(=O)c2ccc(F)c(Cl)c2)c2cc(NC(=O)OC(C)(C)C(F)(F)F)ccc2O1` (single isomer, unassigned) [Example 2B, (R or S)-ethyl 3-((S)-4-((3-chloro-4-fluorophenyl)sulfonyl)-6-((((1,1,1-trifluoro-2-methylpropan-2-yl)oxy)carbonyl)amino)-3,4-dihydro-2H-benzo[b][1,4]oxazin-2-yl)-2-methylpropanoate], for which the IC50 came to 6 nM.
The value for `CC(C[C@H]1CN(S(=O)(=O)c2ccc(F)c(Cl)c2)c2cc(NC(=O)OC(C)(C)C(F)(F)F)ccc2O1)C(=O)O` (single isomer, unassigned) [Example 5A, (S or R)-3-((S)-4-((3-chloro-4-fluorophenyl)sulfonyl)-6-((((1,1,1-trifluoro-2-methylpropan-2-yl)oxy)carbonyl)amino)-3,4-dihydro-2H-benzo[b][1,4]oxazin-2-yl)-2-methylpropanoic acid] was 7 nM.
For `CC(C[C@H]1CN(S(=O)(=O)c2ccc(F)c(Cl)c2)c2cc(NC(=O)OC(C)(C)C(F)(F)F)ccc2O1)C(=O)O` (single isomer, unassigned) [Example 5B, (R or S)-3-((S)-4-((3-chloro-4-fluorophenyl)sulfonyl)-6-((((1,1,1-trifluoro-2-methylpropan-2-yl)oxy)carbonyl)amino)-3,4-dihydro-2H-benzo[b][1,4]oxazin-2-yl)-2-methylpropanoic acid], the IC50 stood at 8 nM.
Then `CCn1cc(S(=O)(=O)N2C[C@H](C[C@H](C(=O)O)C3CC3)Oc3ccc(NC(=O)OC(C)(C)C(F)(F)F)cc32)c(OCCO)n1` (single isomer, unassigned) [Example 10Y, (S or R)-2-cyclopropyl-3-((S)-4-((1-ethyl-3-(2-hydroxyethoxy)-1H-pyrazol-4-yl)sulfonyl)-6-((((1,1,1-trifluoro-2-methylpropan-2-yl)oxy)carbonyl)amino)-3,4-dihydro-2H-benzo[b][1,4]oxazin-2-yl)propanoic acid], with 132 nM.
